Measured values reported in US4758555A, “Method for treating convulsions and epilepsy with organic copper compounds” (priority 1986, dated 1988).

Assay: Rotating rod neurotoxicity
Details: dose and time given in the source

Substance | Rotating rod toxicity (in words)
Copper acetate [Cu(II)2 (acetate)4] | Rotating rod toxicity at 30, 100, 300 and 600 mg/kg
Cu(II)2 (benzoate)4 | Rotating rod toxicity at 300 mg/kg
